ChEMBL document CHEMBL2176985 (J Med Chem, 2012)

Protein sequences, listed by entry. Tags and fused reporters are not part of them. Lines headed by an entry give the natural chain unless they say otherwise; changes in a name come on top.
UniProt P17787: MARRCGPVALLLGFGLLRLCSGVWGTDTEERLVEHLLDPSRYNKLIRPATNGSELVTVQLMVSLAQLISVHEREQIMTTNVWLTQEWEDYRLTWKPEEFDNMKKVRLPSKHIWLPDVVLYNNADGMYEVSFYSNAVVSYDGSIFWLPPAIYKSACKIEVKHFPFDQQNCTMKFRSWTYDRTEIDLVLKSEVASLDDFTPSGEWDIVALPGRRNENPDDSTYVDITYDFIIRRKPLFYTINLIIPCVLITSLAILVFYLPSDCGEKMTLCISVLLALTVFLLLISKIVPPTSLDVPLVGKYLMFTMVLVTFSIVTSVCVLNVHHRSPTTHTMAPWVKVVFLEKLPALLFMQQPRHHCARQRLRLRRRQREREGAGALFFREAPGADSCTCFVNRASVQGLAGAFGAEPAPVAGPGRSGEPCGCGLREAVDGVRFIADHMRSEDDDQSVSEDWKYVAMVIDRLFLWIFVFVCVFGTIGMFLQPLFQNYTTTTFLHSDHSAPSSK
UniProt P43681: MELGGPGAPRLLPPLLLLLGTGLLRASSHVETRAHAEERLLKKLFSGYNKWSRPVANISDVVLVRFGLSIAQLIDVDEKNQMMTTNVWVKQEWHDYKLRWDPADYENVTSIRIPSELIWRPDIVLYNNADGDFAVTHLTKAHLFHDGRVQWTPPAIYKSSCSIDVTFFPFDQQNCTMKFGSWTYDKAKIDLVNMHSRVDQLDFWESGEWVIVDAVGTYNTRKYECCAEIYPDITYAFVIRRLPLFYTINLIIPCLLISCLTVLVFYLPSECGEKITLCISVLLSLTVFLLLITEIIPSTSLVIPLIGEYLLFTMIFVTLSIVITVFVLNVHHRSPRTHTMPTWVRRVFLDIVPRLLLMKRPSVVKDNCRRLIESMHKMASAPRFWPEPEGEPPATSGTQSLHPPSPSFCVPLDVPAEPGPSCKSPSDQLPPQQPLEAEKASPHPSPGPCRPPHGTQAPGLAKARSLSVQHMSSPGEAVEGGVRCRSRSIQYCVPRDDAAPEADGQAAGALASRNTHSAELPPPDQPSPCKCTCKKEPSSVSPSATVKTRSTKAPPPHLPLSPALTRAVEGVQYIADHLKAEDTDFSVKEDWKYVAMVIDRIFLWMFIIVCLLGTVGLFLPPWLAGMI

Experiments:
[1] = biological target: T1, Neuronal acetylcholine receptor; alpha4/beta2 (Homo sapiens, UniProt P17787+P43681); assay: Agonist activity at human low-sensitivity alpha4beta2 nAChR expressed in human SH-EP1 cells assessed as stimulation of 86Rb+ efflux preincubated for 10 mins by liquid scintillation counting relative to control; type: functional, cell-based
[2] = biological target: T1, Neuronal acetylcholine receptor; alpha4/beta2; assay: Agonist activity at human high-sensitivity alpha4beta2 nAChR expressed in human SH-EP1 cells assessed as stimulation of 86Rb+ efflux preincubated for 10 mins by liquid scintillation counting relative to control; type: functional, cell-based

## CN1CCC[C@H]1c1cccnc1 [NICOTINE]
[1]
  Efficacy: 70%
[2]
  Efficacy: 124%
